Experimental data taken from PubChem BioAssay AID602396 (The Scripps Research Institute Molecular Screening Center, 2012).
This is a selection; strong and weak results do not stand in their true shares. Activity calls are given as the source filed them.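 Rule for the calls: active = inhibition above the mean inhibition of all tested compounds plus 3 SD (cut at about 73% in these data); inactive = the rest.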

Protein sequences, listed by entry. Tags and fused reporters are not part of them.
UniProt O00482, whole entry: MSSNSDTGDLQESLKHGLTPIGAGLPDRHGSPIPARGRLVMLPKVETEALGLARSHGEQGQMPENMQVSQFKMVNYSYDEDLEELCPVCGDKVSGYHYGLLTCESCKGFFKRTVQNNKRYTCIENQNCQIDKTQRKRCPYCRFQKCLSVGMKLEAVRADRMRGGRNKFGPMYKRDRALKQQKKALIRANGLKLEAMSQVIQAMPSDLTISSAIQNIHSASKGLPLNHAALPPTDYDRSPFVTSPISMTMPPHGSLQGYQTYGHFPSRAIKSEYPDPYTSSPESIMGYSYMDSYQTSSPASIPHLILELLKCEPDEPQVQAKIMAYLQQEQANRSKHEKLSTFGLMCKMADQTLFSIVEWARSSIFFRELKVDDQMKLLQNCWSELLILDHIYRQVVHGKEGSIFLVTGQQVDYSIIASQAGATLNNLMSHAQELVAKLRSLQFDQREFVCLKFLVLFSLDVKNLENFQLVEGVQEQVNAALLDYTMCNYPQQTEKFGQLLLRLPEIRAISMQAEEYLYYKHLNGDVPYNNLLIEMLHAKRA

target: Nuclear receptor subfamily 5 group A member 2 (Homo sapiens) (UniProt O00482); assay: reduction of NR5A2-driven StAR reporter activity – cell-based, luminescence, HEK293T, StAR-luciferase reporter, primary screen (AID 602396); conditions: LRH-1 transfected, 24 h, at 3.6 µM, stronger effect = higher value;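 note: 0% = DMSO wells and 100% = reporter-only cells lacking LRH-1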

Compound | inhibition
CCCOc1ccc(C(=O)NCC2(N(C)C)CCCCC2)cc1 | inactive: 3.28%
O=c1[nH]c2ccccc2n1C1CCN(C(c2cc3ccccc3o2)c2nnnn2C2CCCC2)CC1 (stereo not drawn) | inactive: -25.5%
O=C(O)C1(Nc2ccccc2)CCN(Cc2ccccc2)CC1 | inactive: 4.08%
NN(c1ccccc1)C1CCN(CCc2ccccc2)CC1 | inactive: -7.94%
CC(C)(C)OC(=O)N1CCC(Nc2ccccc2)CC1 | inactive: -9.98%
CN1CCC(Nc2ccc(F)c(Cl)c2)CC1 | inactive: 4.12%
CCOc1ncccc1C(=O)NCC1(N2CCOCC2)CCCCC1 | inactive: 5.16%
CN1CCC(Nc2ccc(Cl)cc2)CC1 | inactive: 7.86%
CCC(CO)(C(=O)OC1CN2CCC1CC2)c1ccccc1 (stereo not drawn) | inactive: -11.5%
COc1cccc(C(c2nnnn2C2CCCC2)N2CCC(n3c(=O)[nH]c4ccccc43)CC2)c1OC (stereo not drawn) | inactive: 15.1%
COc1cc(OC)cc(C(=O)NCC2(N3CCOCC3)CCCCC2)c1 | inactive: -6.38%
COc1cccc(C(=O)N(c2cc(C)cc(C)c2)C2CCN(C(=O)OC(C)(C)C)CC2)c1 | inactive: -20.1%
Cc1ccc(NC2(C#N)CCN(Cc3ccccc3)CC2)cc1 | inactive: -9.27%
Fc1ccccc1NC1CCN(Cc2ccccc2)CC1 | inactive: -15.8%
Cc1ccc(C(=O)NCC2(N3CCCCC3)CCCCC2)o1 | inactive: -26.1%
O=c1[nH]c2ccccc2n1C1CCN(C(c2ccnc3ccccc23)c2nnnn2C2CCCCC2)CC1 (stereo not drawn) | inactive: -3.39%
COc1cc(OC)cc(C(=O)NCC2(N3CCCCC3)CCCCC2)c1 | inactive: -11.3%
CCC(c1nnnn1C1CCCCC1)N1CCC(n2c(=O)[nH]c3ccccc32)CC1 (stereo not drawn) | inactive: -0.44%
CC(=O)N(c1ccccc1)C1CCNCC1 | inactive: 21.6%
COc1cccc(C(c2nnnn2C2CCCCC2)N2CCC(n3c(=O)[nH]c4ccccc43)CC2)c1OC (stereo not drawn) | inactive: -9.12%
Cn1c(=O)[nH]cc(N(CCCl)CCCl)c1=O | inactive: 7.13%
CN(C)c1ccc(C(=O)NCC2(N3CCCCC3)CCCCC2)cc1 | inactive: -40.4%

Compound | inhibition
O=C(NCC1(N2CCCCC2)CCCCC1)c1ccco1 | inactive: 1.59%
CC(C)(C)n1nnnc1C(c1ccnc2ccccc12)N1CCC(n2c(=O)[nH]c3ccccc32)CC1 (stereo not drawn) | inactive: -7.7%
COc1ccc(C(c2nnnn2C2CCCCC2)N2CCC(n3c(=O)[nH]c4ccccc43)CC2)cc1 (stereo not drawn) | inactive: -2.01%
CCN1CCC(Nc2cccc(F)c2)CC1 | inactive: -4.05%
Cc1ccccc1NC1(C#N)CCN(Cc2ccccc2)CC1 | inactive: -3.51%
CC(C)(C)OC(=O)N1CCC(N(C(=O)c2ccccc2)c2ccc(Cl)cc2)CC1 | inactive: 5.23%
N#Cc1ccc(C(=O)NCC2(N3CCCCC3)CCCCC2)cc1 | inactive: -29%
CC(C)(C)n1nnnc1C(c1cccc2ccccc12)N1CCC(n2c(=O)[nH]c3ccccc32)CC1 (stereo not drawn) | inactive: 20.4%
O=c1[nH]c2ccccc2n1C1CCN(C(c2ccccc2)c2nnnn2C2CCCC2)CC1 (stereo not drawn) | inactive: 10.4%
CCCN1CCC(Nc2cc(OC)cc(OC)c2)CC1 | inactive: -6.23%
Cc1cc(N(CCCl)CCCl)ccc1C=O | inactive: 21.4%
c1ccc(CN2CCC(Nc3ccccc3)CC2)cc1 | inactive: -3.27%
CN(C)C1(CNC(=O)c2cccc(C#N)c2)CCCCC1 | inactive: 14.3%
O=c1[nH]c2ccccc2n1C1CCN(C(c2ccnc3ccccc23)c2nnnn2C2CCCC2)CC1 (stereo not drawn) | inactive: -10.3%
COc1ccc(C(=O)NCC2(N3CCOCC3)CCCCC2)cc1OC | inactive: -14.8%
O=c1[nH]c2ccccc2n1C1CCN(C(c2cccs2)c2nnnn2C2CCCCC2)CC1 (stereo not drawn) | inactive: 13.7%
O=C(NCC1(N2CCOCC2)CCCCC1)c1cc(Br)ccc1Cl | inactive: -21%
COc1cc(C(=O)NCC2(N3CCOCC3)CCCCC2)cc(OC)c1C | inactive: 8.78%
CCCCn1nnnc1C(c1ccccc1)N1CCC(n2c(=O)[nH]c3ccccc32)CC1 (stereo not drawn) | inactive: -3.23%
CCCCn1nnnc1C(c1cccc(OC)c1OC)N1CCC(n2c(=O)[nH]c3ccccc32)CC1 (stereo not drawn) | inactive: 9.69%
O=c1[nH]c2ccccc2n1C1CCN(C(c2cccs2)c2nnnn2C2CCCC2)CC1 (stereo not drawn) | inactive: -5.1%
O=C(OC1CN2CCC1CC2)C1c2ccccc2C=Cc2ccccc21 (stereo not drawn) | inactive: 13.8%

Compound | inhibition
N/C(=N\O)c1c(N)no[n+]1[O-] | inactive: -9.13%
COc1cccc(C(c2nnnn2C(C)(C)C)N2CCC(n3c(=O)[nH]c4ccccc43)CC2)c1OC (stereo not drawn) | inactive: -9.19%
CCOC(=O)N1CCC(Nc2ccc(C)cc2)CC1 | inactive: -9.96%
CCCCn1nnnc1C(c1ccnc2ccccc12)N1CCC(n2c(=O)[nH]c3ccccc32)CC1 (stereo not drawn) | inactive: -23.5%
CCC(c1nnnn1C(C)(C)C)N1CCC(n2c(=O)[nH]c3ccccc32)CC1 (stereo not drawn) | inactive: 16.3%
O=C(NCC1(N2CCOCC2)CCCCC1)c1cc(F)c(F)cc1Cl | inactive: -5.78%
COc1cc(OC)c(C(=O)NCC2(N(C)C)CCCCC2)cc1OC | inactive: 19.3%
CN(C)c1cccc(C(=O)NCC2(N3CCCCC3)CCCCC2)c1 | inactive: -11.9%
COc1ccc(CN(CCCl)CCCl)cc1Cl | inactive: -6.68%
CC(C)c1ccc(NC2CCN(C(=O)OC(C)(C)C)CC2)cc1 | inactive: -56%
CCCCn1nnnc1C(c1ccccc1OC(F)(F)F)N1CCC(n2c(=O)[nH]c3ccccc32)CC1 (stereo not drawn) | inactive: 13.3%
CCCOc1ccc(C(=O)NCC2(N(C)C)CCCCC2)cc1OC | inactive: 1.16%
Cc1ccc(C(=O)NCC2(N(C)C)CCCCC2)o1 | inactive: -0.57%
COc1ccc(C(c2nnnn2C2CCCC2)N2CCC(n3c(=O)[nH]c4ccccc43)CC2)cc1 (stereo not drawn) | inactive: -3.95%
O=C(NCC1(N2CCCCC2)CCCCC1)c1cncc(Br)c1 | inactive: -14.2%
CN1CCC(Nc2cccc(F)c2)CC1 | inactive: 18%
CSc1ccc(C(=O)NCC2(N3CCOCC3)CCCCC2)cc1 | inactive: -44.5%
O=C(NCC1(N2CCCCC2)CCCCC1)c1cccc([N+](=O)[O-])c1 | inactive: -22.3%
N#CC1(Nc2ccccc2)CCN(CCc2ccccc2)CC1 | inactive: 6.69%
O=c1[nH]c2ccccc2n1C1CCN(C(c2ccccc2OC(F)(F)F)c2nnnn2C2CCCC2)CC1 (stereo not drawn) | inactive: -21.8%
CCN1CCC(Nc2ccc(Cl)cc2)CC1 | inactive: -0.67%
O=C(NCC1(N2CCCCC2)CCCCC1)c1ccc(OC(F)F)cc1 | inactive: -15.8%

Compound | inhibition
CC(C)(C)n1nnnc1C(c1ccccc1OC(F)(F)F)N1CCC(n2c(=O)[nH]c3ccccc32)CC1 (stereo not drawn) | inactive: 15.6%
CCCCn1nnnc1C(c1cccc2ccccc12)N1CCC(n2c(=O)[nH]c3ccccc32)CC1 (stereo not drawn) | inactive: 6.31%
CN1CCN(CCOC(=O)C(O)(c2ccccc2)c2ccccc2)CC1 | inactive: -6.04%
COc1ccc(NC2CCN(C(=O)OC(C)(C)C)CC2)cc1 | inactive: -7.49%
CC(C)c1ccc(C(=O)NCC2(N3CCOCC3)CCCCC2)cc1 | inactive: -30.5%
COc1cc(C(=O)NCC2(N3CCCCC3)CCCCC2)ccc1OC(F)F | inactive: -50.9%
O=C(NCC1(N2CCOCC2)CCCCC1)c1cc(=O)[nH]c2ccccc12 | inactive: -12.6%
O=C(NCC1(N2CCCCC2)CCCCC1)c1cccc(C(F)(F)F)c1 | inactive: -18.4%
COc1ccc(NC2CCN(CCc3ccccc3)CC2)c(OC)c1 | inactive: 1.36%
CCOC(=O)N1CCC(Nc2ccc(F)cc2)CC1 | inactive: 15.5%
O=C(NCC1(N2CCCCC2)CCCCC1)c1ccc(F)cc1 | inactive: -13.7%
O=P1(N(CCCl)CCCl)SCCCS1 | inactive: -16.1%
CCCCn1nnnc1C(c1cc2ccccc2o1)N1CCC(n2c(=O)[nH]c3ccccc32)CC1 (stereo not drawn) | inactive: -21.5%
CCCCOc1ccc(C(=O)NCC2(N3CCOCC3)CCCCC2)cc1 | inactive: -9.61%
CCOc1ccc(C)cc1CN(CCCl)CCCl | inactive: 13.8%
O=C1CCN(Cc2ccccc2)CC1 | inactive: -7.1%
CC(C)(C)n1nnnc1C(c1ccccc1)N1CCC(n2c(=O)[nH]c3ccccc32)CC1 (stereo not drawn) | inactive: -0.14%
O=c1[nH]c2ccccc2n1C1CCN(C(c2cccc3ccccc23)c2nnnn2C2CCCC2)CC1 (stereo not drawn) | inactive: 16.2%
COc1cc(C(=O)NCC2(N(C)C)CCCCC2)ccc1OC(F)F | inactive: 15.9%
CCOC(=O)N1CCC(Nc2cccc(C)c2)CC1 | inactive: -12.6%
O=c1[nH]c2ccccc2n1C1CCN(C(c2ccccc2)c2nnnn2C2CCCCC2)CC1 (stereo not drawn) | inactive: -34.4%
Cc1cccc(NC2(C#N)CCN(Cc3ccccc3)CC2)c1 | inactive: -4.73%

Compound | inhibition
CSc1ccccc1C(=O)NCC1(N2CCCCC2)CCCCC1 | inactive: 0.08%
CCCCn1nnnc1C(c1cccs1)N1CCC(n2c(=O)[nH]c3ccccc32)CC1 (stereo not drawn) | inactive: 6.98%
CCCCn1nnnc1C(CC)N1CCC(n2c(=O)[nH]c3ccccc32)CC1 (stereo not drawn) | inactive: -18.9%
O=C(NCC1(N2CCCCC2)CCCCC1)c1cccs1 | inactive: -14.3%
O=C(NCC1(N2CCCCC2)CCCCC1)c1ccc(=O)[nH]c1 | inactive: -78.8%
CCC(c1nnnn1C1CCCC1)N1CCC(n2c(=O)[nH]c3ccccc32)CC1 (stereo not drawn) | inactive: -18%
COc1ccc(C(=O)NCC2(N3CCCCC3)CCCCC2)c(OC)c1OC | inactive: 0.61%
CC(C)(C)OC(=O)N1CCC(N(C(=O)c2ccccc2)c2ccc(F)cc2)CC1 | inactive: -16%
COc1ccc(C(=O)NCC2(N3CCCCC3)CCCCC2)cc1 | inactive: -23.5%
CCCCn1nnnc1C(c1ccc(OC)cc1)N1CCC(n2c(=O)[nH]c3ccccc32)CC1 (stereo not drawn) | inactive: -7.39%
CCOC(=O)N1CCC(Nc2ccc(OC)cc2)CC1 | inactive: 2.18%
COc1ccc(Cl)cc1C(=O)NCC1(N2CCOCC2)CCCCC1 | inactive: -19.6%
O=C(OC1CN2CCC1CC2)C1c2ccccc2Oc2ccccc21 (stereo not drawn) | inactive: -5.82%
O=c1[nH]c2ccccc2n1C1CCN(C(c2cc3ccccc3o2)c2nnnn2C2CCCCC2)CC1 (stereo not drawn) | inactive: 15.8%
N#CC1(Nc2ccccc2)CCN(Cc2ccccc2)CC1 | inactive: -4.75%
O=C(NCC1(N2CCCCC2)CCCCC1)c1ccc(Cl)s1 | inactive: -9.5%
O=C(NCC1(N2CCOCC2)CCCCC1)c1cc2ccccc2o1 | inactive: 14.7%
Cc1cc(C)cc(N(C(=O)c2ccccc2)C2CCN(C(=O)OC(C)(C)C)CC2)c1 | inactive: 4.22%
O=c1[nH]c2ccccc2n1C1CCN(C(c2ccccc2OC(F)(F)F)c2nnnn2C2CCCCC2)CC1 (stereo not drawn) | inactive: -26.4%
O=C(NCC1(N2CCCCC2)CCCCC1)c1ccc(Cl)nc1 | inactive: -64.6%
